The chains behind the UniProt entries cited, without tags or fusion partners. Residues count along the entry.
UniProt P02768, 25-609 limits assumed: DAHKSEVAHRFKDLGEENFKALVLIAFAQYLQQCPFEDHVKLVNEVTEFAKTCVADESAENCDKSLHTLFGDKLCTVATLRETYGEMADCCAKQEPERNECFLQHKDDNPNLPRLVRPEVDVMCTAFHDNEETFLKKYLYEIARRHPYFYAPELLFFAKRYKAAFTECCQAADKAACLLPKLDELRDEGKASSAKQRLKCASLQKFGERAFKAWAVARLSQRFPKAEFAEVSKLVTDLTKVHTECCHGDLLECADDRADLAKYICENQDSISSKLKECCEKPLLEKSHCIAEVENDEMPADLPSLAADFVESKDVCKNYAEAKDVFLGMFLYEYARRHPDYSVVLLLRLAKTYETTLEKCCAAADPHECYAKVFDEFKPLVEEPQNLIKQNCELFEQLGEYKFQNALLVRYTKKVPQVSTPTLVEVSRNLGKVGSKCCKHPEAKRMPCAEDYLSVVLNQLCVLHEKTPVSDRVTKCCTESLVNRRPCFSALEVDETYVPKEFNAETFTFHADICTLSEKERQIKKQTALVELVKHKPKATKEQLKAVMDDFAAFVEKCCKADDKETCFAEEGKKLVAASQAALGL

According to PMC3625562, “Rapid Screening of Drug-Protein Binding Using High-Performance Affinity Chromatography with Columns Containing Immobilized Human Serum Albumin” (Journal of Analytical Methods in Chemistry, 2013):

Experiments:
[1] = target: immobilized human serum albumin (HSA) (Homo sapiens, UniProt P02768); assay: Drug-protein binding screening by HPLC on immobilized HSA column (HSA-HPLC); settings: PPB class from retention time on HSA column (cut-off 4.55 min) and pKa
[2] = tested on: plasma proteins; assay: PPB experiment by ultrafiltration; settings: plasma, 10, 40, 200, 100, 2000, 100 ng/mL for A, B, C, D, E, F; 37°C 30 min; Microcon YM-30, triplicates

COC12C=CC3(CC1C(C)(O)CCc1cccs1)C1Cc4ccc(O)c5c4C3(CCN1CC1CC1)C2O5 (centres unmarked)
Screening result by HSA-HPLC (PPB) [1]: >90%
PPB by ultrafiltration [2]: 94.86 ± 0.56% and 95.0%

Values joined by “and” are separate entries in the source; they are usually repeats but may differ in a detail not shown here. Equal entries are not always repeated.
